The source of these data is PubChem BioAssay AID493087 (The Scripps Research Institute Molecular Screening Center, 2011).

Chains of the proteins cited; added tags and fusions are not shown.
UniProt P14735, whole entry: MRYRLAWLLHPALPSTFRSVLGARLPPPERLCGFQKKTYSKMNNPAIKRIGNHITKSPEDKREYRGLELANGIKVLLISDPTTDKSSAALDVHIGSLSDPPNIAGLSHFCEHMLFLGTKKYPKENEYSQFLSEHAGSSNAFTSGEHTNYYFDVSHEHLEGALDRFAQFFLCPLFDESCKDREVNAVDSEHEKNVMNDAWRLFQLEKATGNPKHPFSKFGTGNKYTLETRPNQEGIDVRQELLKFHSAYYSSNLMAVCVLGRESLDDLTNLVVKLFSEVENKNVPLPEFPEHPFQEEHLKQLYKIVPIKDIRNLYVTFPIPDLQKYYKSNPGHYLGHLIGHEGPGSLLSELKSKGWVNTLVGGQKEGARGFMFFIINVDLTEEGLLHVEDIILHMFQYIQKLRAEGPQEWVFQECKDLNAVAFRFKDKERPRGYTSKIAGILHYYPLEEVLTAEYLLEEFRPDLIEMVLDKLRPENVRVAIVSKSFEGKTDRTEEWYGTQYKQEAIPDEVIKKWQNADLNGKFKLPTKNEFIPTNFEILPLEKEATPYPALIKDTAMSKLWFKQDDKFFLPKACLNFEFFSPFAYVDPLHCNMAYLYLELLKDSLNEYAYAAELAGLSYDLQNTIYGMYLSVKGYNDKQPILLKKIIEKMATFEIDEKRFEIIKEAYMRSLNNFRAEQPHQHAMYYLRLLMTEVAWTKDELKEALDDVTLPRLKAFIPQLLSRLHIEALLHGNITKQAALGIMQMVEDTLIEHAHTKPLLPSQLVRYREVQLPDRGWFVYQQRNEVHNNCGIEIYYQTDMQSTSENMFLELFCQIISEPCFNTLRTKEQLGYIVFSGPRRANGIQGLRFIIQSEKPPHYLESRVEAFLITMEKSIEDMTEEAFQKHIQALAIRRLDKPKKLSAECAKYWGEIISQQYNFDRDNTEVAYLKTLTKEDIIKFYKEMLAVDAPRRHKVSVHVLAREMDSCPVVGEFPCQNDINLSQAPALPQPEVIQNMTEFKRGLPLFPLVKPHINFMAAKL

The entries are a selection whose mix differs from that of the whole data set. Some results for these compounds are left out of this collection, so the calls shown say nothing about other tests. The source made the active and inactive calls.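 The calls were made as follows: active = activation above the mean of all tested compounds plus 3 SD, set per screening campaign (cut at about 17% in these data); inactive = the rest.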

In this experiment the target is Insulin-degrading enzyme (Homo sapiens) (UniProt P14735). The experiment is described as follows: enhanced cellular IDE Abeta cleavage – fluorescence polarization, HEK cells, FAbeta-B substrate, primary screen (AID 493087). Conditions: at 5.96 µM, hits give high values, 0% vehicle, 100% cell-free pure enzyme wells. Background: In fluorescence polarisation assays a small probe gives low polarisation when free and higher when bound to something large.
Consider `Cc1ccccc1C(=O)NCC1(N2CCCCC2)CCCCC1`, for which the activation is inactive: 4.6%. The same measure for `CN(C)C1CCCC1OC(=O)C(O)(c1ccccc1)c1ccccc1` (stereo not given): inactive: 1.02%. In the case of `CN(C)c1ccc(C(=O)NCC2(N(C)C)CCCCC2)cc1` it was inactive: -1.96%. Take `C=CCN1CCN(CCOC(=O)C(O)(c2ccccc2)c2ccccc2)CC1`: the activation was inactive: 0.49%. The same measure for `O=C(NCC1(N2CCCCC2)CCCCC1)c1cc(F)c(F)cc1Cl`: inactive: 0.24%; for `COc1ccc(C(=O)NCC2(N(C)C)CCCCC2)cc1`: inactive: -3%. The same measure for `Cc1cc(C(=O)NCC2(N3CCCCC3)CCCCC2)ccc1[N+](=O)[O-]`: inactive: 2.08%; for `CCN1CCCC(OC(=O)C2(O)c3ccccc3C=Cc3ccccc32)C1` (stereo not given): inactive: 1.27%; for `O=C(NCC1(N2CCCCC2)CCCCC1)c1cccc(Br)c1`: inactive: 1.32%. In the case of `O=C(NCC1(N2CCCCC2)CCCCC1)c1cc([N+](=O)[O-])ccc1Cl`, the activation was inactive: 0.49%.

As to `CN1[C@@H]2CC[C@H]1CC(OC(=O)C(O)(c1ccccc1)c1ccccc1)C2` (stereo not given in full), the activation is inactive: -1.35%. In the case of `CCN(CC)CC(C)C(C)OC(=O)C(O)(c1ccccc1)c1ccccc1` (stereo not given) it was inactive: 0.02%; in that of `COc1cc(SC)ccc1C(=O)NCC1(N(C)C)CCCCC1`, inactive: 4.22%; in that of `CC(C)N1C(=O)CC2(CCN(CCOC(=O)C(O)(c3ccccc3)c3ccccc3)CC2)C1=O`, inactive: 1.28%. Regarding `Cc1ccc(C(=O)NCC2(N3CCCCC3)CCCCC2)cc1`, the activation is inactive: -0.48%. Turning to `O=C(OC1CN2CCC1CC2)C(CO)(c1ccccc1)c1ccccc1` (stereo not given), the activation is inactive: 2.48%. In the case of `COc1ccc(Br)c(C(=O)NCC2(N3CCCCC3)CCCCC2)c1` it was inactive: -3.84%; in that of `CC(C)Oc1ccc(C(=O)NCC2(N(C)C)CCCCC2)cc1`, inactive: 4.39%; in that of `O=C(OCCN1CCCC1)C(O)(c1ccccc1)c1ccccc1`, inactive: 5.09%. As to `CN(C)c1cccc(C(=O)NCC2(N(C)C)CCCCC2)c1`, the activation is inactive: -2.65%. In the case of `CN(C)C1(CNC(=O)c2ccc(Br)cc2)CCCCC1` it was inactive: 7.77%; in that of `COc1cc(C(=O)NCC2(N(C)C)CCCCC2)c([N+](=O)[O-])cc1OC`, inactive: 2.89%; in that of `COc1cccc(C(=O)NCC2(N3CCCCC3)CCCCC2)c1`, inactive: -1.61%. For the compound `COc1ccc(Cl)cc1C(=O)NCC1(N(C)C)CCCCC1`, the activation is inactive: 3.26%. The same measure for `O=C(NCC1(N2CCCCC2)CCCCC1)c1cccc(Cl)c1`: inactive: 5.62%.
